Our source for the inhibition values is PubChem BioAssay AID2718 (Broad Institute, 2010).

The chains behind the UniProt entries cited, without tags or fusion partners.
UniProt O15379, whole entry: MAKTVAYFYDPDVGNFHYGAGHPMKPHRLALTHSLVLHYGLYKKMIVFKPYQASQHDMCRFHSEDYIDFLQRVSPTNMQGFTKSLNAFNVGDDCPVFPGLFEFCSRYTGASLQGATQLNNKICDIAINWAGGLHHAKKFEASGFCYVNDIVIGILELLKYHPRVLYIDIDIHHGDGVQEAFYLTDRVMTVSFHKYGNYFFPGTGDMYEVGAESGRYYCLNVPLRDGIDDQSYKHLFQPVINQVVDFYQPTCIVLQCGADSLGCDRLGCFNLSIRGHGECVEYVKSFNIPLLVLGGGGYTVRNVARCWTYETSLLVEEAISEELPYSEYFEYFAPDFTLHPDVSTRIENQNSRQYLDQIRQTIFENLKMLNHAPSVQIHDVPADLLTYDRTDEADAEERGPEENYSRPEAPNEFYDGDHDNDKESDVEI

Only a part is listed here, and it is no random draw. Calls of active or inactive are those of the source. No stated cut-off is given here; in the data, active means inhibition above about 26% (passing the limit was not always enough); inconclusive means no clear call, values can overlap the other calls.

The target in the test is Histone deacetylase 3 (Homo sapiens) (UniProt O15379). Nature of the test: inhibition of human HDAC3 enzyme activity – biochemical, fluorescence, cell-free homogeneous, primary screen (AID 2718). The note with it: recombinant HDAC3, fluorogenic peptide/trypsin coupled, at 8.3 µM, active compounds read high.
For the compound `O=[N+]([O-])c1cc([N+](=O)[O-])c(-n2nnc3ccccc32)c([N+](=O)[O-])c1`, the inhibition was inactive: 4.42%.
With `Cc1nc2ccc3ccccc3c2s1.O=[N+]([O-])c1cc([N+](=O)[O-])c(O)c([N+](=O)[O-])c1` the figure was inactive: 2.04%.
Then `O=[N+]([O-])c1cc([N+](=O)[O-])c(-c2cnn(-c3ccccc3)c2)c([N+](=O)[O-])c1`, with inactive: -3.62%; and `CC1=C2N=C(C=C3N=C(C(C)=C4[N-][C@@](C)([C@@H]5N=C1[C@](C)(CCC(=O)NC[C@@H](C)OP(=O)([O-])O[C@H]1[C@@H](O)[C@@H](n6cnc7cc(C)c(C)cc76)O[C@@H]1CO)[C@H]5CC(N)=O)[C@@](C)(CC(N)=O)[C@@H]4CCC(N)=O)[C@@](C)(CC(N)=O)[C@@H]3CCC(N)=O)C(C)(C)[C@@H]2CCC(N)=O.[C-]#N.[Co+3]`, with inactive: 4.64%; and `O=[N+]([O-])c1cc([N+](=O)[O-])c(Nc2nnnn2CCO)c([N+](=O)[O-])c1`, with inactive: 1.93%.
Then `CCCOc1ccc(NP(C)(=O)Oc2ccc(Cl)cc2)cc1` (stereo unspecified), with inactive: 1.19%.
As for `CP(=O)(Nc1ccc(SC(F)(F)F)cc1)Oc1ccccc1` (stereo unspecified), the inhibition was inactive: 5.22%.
Turning to `COc1ccccc1OP(C)(=O)Nc1c(C)cccc1C` (stereo unspecified), the inhibition is inactive: -3.39%.
In the case of `CN1CCCCC1COC(=O)C1(O)c2ccccc2CCc2ccccc21` (stereo unspecified), the inhibition was inactive: -0.214%.
Then `O=C(O)c1cccc(Nc2c([N+](=O)[O-])cc([N+](=O)[O-])cc2[N+](=O)[O-])c1`, with inactive: 14.5%; and `CC1=NCCc2c1[nH]c1ccccc21.O=[N+]([O-])c1cc([N+](=O)[O-])c(O)c([N+](=O)[O-])c1`, with inactive: 5.92%; and `CCOC(=O)c1ccc(NP(C)(=O)Oc2cc(C)cc(C)c2)cc1` (stereo unspecified), with inactive: 10.3%.
Regarding `Cc1cc(C)cc(OP(C)(=O)Nc2ccc(C)cc2C)c1` (stereo unspecified), the inhibition is inactive: 4.96%.
With `COc1ccccc1OP(C)(=O)Nc1cccc(Br)c1` (stereo unspecified) the figure was inactive: -8.52%.
Then `Cc1ccc(C)c(NP(C)(=O)Oc2ccccc2)c1` (stereo unspecified), with inactive: -2.79%.
Consider `Cc1cc(C)cc(OP(C)(=O)Nc2ccccn2)c1` (stereo unspecified), for which the inhibition was inactive: 0.172%.
As to `CP(=O)(Nc1cccc(Br)c1)Oc1ccccc1` (stereo unspecified), the inhibition was inactive: 3.98%.
With `CCN(CC)CCCOC(=O)C(O)(c1ccccc1)c1ccccc1`, the inhibition is inactive: 4.33%.
Take `O=[N+]([O-])c1ccc2c(c1)C=Nc1ccccc1O2`: the inhibition is inactive: -1.68%.
With `CC(C)(C)c1ccc(OP(C)(=O)Nc2ccc(SC(F)(F)F)cc2)cc1` (stereo unspecified) the figure was active: 32.6%; with `O=[N+]([O-])c1cc([N+](=O)[O-])c(Nc2cccnc2)c([N+](=O)[O-])c1`, inactive: 9.78%.
With `Cc1cc(C)cc(OP(C)(N)=O)c1` (stereo unspecified) the figure was inactive: -10.2%.
Then `COc1ccc(OP(C)(=O)Nc2cccc(F)c2)cc1` (stereo unspecified), with inactive: -4.01%.
For `COc1ccccc1OP(C)(=O)Nc1cc(Cl)ccc1C` (stereo unspecified), the inhibition is inactive: 5.02%.
With `Cc1ccc(NP(C)(=O)Oc2ccccc2)c(C)c1` (stereo unspecified) the figure was inactive: -0.935%.
Then `COc1ccccc1OP(C)(=O)Nc1ccc(C)cc1` (stereo unspecified), with inactive: -7.55%; and `CCOC(=O)c1ccc(NP(C)(=O)Oc2ccccc2)cc1` (stereo unspecified), with inactive: -0.937%.
Then `CP(=O)(Nc1ccccc1Br)Oc1ccccc1` (stereo unspecified), with inactive: 4.44%.
Turning to `COc1ccccc1OP(C)(=O)Nc1ccccc1` (stereo unspecified), the inhibition is inactive: -2.17%.
`CP(=S)(Nn1cnnc1)Oc1ccccc1` (stereo unspecified): the inhibition is inactive: 3.33%.
With `Cc1cc(C)cc(OP(C)(=O)Nc2ccc(SC(F)(F)F)cc2)c1` (stereo unspecified) the figure was inactive: 3.28%.
Then `CP(=O)(NC(=O)Nc1ccccc1)Oc1ccccc1` (stereo unspecified), with inactive: -2.66%.
Then `CCc1ccc(OP(C)(=O)N2CCN(c3ccc([N+](=O)[O-])cc3)CC2)cc1` (stereo unspecified), with inactive: 4.65%; and `CP(=O)(Oc1ccccc1)OC(c1ccccc1)C(F)(F)F` (stereo unspecified), with inactive: 3.49%; and `Cc1cccc(C)c1OP(C)(=O)Nc1ccc(SC(F)(F)F)cc1` (stereo unspecified), with inactive: 4.12%.
On to `CP(=O)(Nc1ccccn1)Oc1ccc(Cl)cc1` (stereo unspecified), for which the inhibition is inactive: 4.37%.
Then `CCOC(=O)c1ccc(NP(C)(=O)Oc2ccc(OC)cc2)cc1` (stereo unspecified), with inactive: 5.53%.
With `O=[N+]([O-])c1cc([N+](=O)[O-])c(O)c([N+](=O)[O-])c1.c1ccc(Oc2ccncc2)cc1` the figure was inactive: 6.94%; with `CCOP(C)(=S)SCC(=O)NC(C)C(=O)O` (stereo unspecified), inactive: -7.84%; with `O=C(OCCCN1CCCC1)C(O)(c1ccccc1)C1CCCCC1` (stereo unspecified), inactive: -2.47%.
With `COc1ccccc1OP(C)(=O)Nc1c(C)n(C)n(-c2ccccc2)c1=O` (stereo unspecified) the figure was inactive: 0.611%.
In the case of `CCc1ccc(OP(C)(=O)Nc2cccnc2)cc1` (stereo unspecified), the inhibition is inactive: -13.8%.
`CCN(CC)CC(O)COC(=O)C(O)(c1ccccc1)C1CCCCC1` (stereo unspecified): the inhibition is inactive: -1.7%.
`CN(C)C(=O)c1c([N+](=O)[O-])cc([N+](=O)[O-])cc1[N+](=O)[O-]`: the inhibition was inactive: -1.22%.
Then `COc1ccccc1OP(C)(=O)Nc1ccccc1Br` (stereo unspecified), with inactive: -3.94%.
With `CC(C)(C)c1ccc(OP(C)(=O)O)cc1` the figure was inactive: -1.09%.
Then `CP(=O)(Nc1ccc(Cl)cc1)Oc1ccc(F)cc1` (stereo unspecified), with inactive: -0.64%; and `CCOC(=O)c1ccc(NP(C)(=O)Oc2ccc(Cl)cc2)cc1` (stereo unspecified), with inactive: -2.16%.
As to `CP(=O)(OC12CC3CC(CC(C3)C1)C2)OC12CC3CC(CC(C3)C1)C2`, the inhibition was inactive: 2.42%.
Then `Nc1ccc2c(ccc3cccnc32)n1.O=[N+]([O-])c1cc([N+](=O)[O-])c(O)c([N+](=O)[O-])c1`, with inactive: -11%.
Then `COc1ccccc1OP(C)(=O)Nc1ccc(C)c(C)c1` (stereo unspecified), with inactive: 0.322%; and `COc1ccc(OP(C)(=O)Nc2ccccc2Br)cc1` (stereo unspecified), with inactive: 6.48%.
`Cc1cc(C)cc(OP(C)(=O)Nc2cccc(C(F)(F)F)c2)c1` (stereo unspecified): the inhibition was inactive: 11.3%.
With `CP(=O)(Nc1ccc(Cl)cc1Cl)Oc1ccccc1` (stereo unspecified) the figure was inactive: 3.55%.
With `CP(=O)(OCCOc1ccccc1)OCCOc1ccccc1` the figure was inactive: -5.32%; with `Cc1nc2ccc3ccccc3c2o1.O=[N+]([O-])c1cc([N+](=O)[O-])c(O)c([N+](=O)[O-])c1`, inactive: 3.64%.

One may read the inhibition as the drop in the measured response relative to a control, in per cent.
